Source: ChEMBL document CHEMBL1153183, “Pyridine containing M(1) positive allosteric modulators with reduced plasma protein binding” (Bioorg Med Chem Lett, 2010)

By UniProt entry, the sequences of proteins in these tests, tags left out. Where a name states a change or a piece, a line headed by the entry shows the natural chain unless it says otherwise.
UniProt P11229: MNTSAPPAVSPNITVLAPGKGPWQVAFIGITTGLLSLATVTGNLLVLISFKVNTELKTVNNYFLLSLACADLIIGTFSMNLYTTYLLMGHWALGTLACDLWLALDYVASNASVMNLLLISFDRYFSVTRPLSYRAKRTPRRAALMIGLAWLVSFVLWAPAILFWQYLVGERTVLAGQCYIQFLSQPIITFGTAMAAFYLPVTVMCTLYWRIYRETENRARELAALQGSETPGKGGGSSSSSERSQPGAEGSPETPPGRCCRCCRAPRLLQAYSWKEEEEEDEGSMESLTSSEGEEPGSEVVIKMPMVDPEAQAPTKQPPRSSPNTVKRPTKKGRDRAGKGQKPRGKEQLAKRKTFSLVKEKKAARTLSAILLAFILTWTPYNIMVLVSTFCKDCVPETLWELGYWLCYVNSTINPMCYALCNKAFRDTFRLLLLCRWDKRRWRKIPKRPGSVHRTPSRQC

Each compound was assayed against Muscarinic acetylcholine receptor M1 (Homo sapiens) (UniProt P11229) (assay: Allosteric modulation of human muscarinic M1 receptor expressed in CHO cells assessed as effect on acetylcholine-induced calcium mobilization by FLIPR assay).
Assay type: functional, cell-based
In short: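 Human M1-expressing CHO cells; test compound added with an EC20 concentration of acetylcholine; calcium mobilization read on FLIPR384. Inflection point (IP) derived; percent max is the maximum potentiated EC20 response. Values are the mean of at least two experiments; interassay variability ±30% for IP unless otherwise noted.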

Point of comparison: O=C(O)c1cn(Cc2ccc(-c3cccnc3)nc2)c2c(F)cccc2c1=O, IP 951 nM. Against it:
- Cn1cc(-c2ccc(Cn3cc(C(=O)O)c(=O)c4c(F)cccc43)nc2)cn1 — 5.4-fold lower, 176 nM
- CC(=O)Nc1cccc(-c2ccc(Cn3cc(C(=O)O)c(=O)c4cccc(F)c43)nc2)c1 — 7.3-fold lower, 131 nM
